{"source": "paper PMC5221572", "target": "DENV3 NS2B/NS3 protease (cNS2B-G4SG4-NS3pro185) (dengue virus serotype 3 (DENV3))", "assay": "FRET-based enzymatic cleavage inhibition assay", "data": [{"substance": "wild-type aprotinin (from UniProt P00974 36-93) (natural protein)", "values": [{"measurement": "Ki", "result": 3.7, "unit": "nM"}]}]}
